Chains of the proteins cited; added tags and fusions are not shown. Residues count along the entry.
UniProt P78536, 215-824, species assumed: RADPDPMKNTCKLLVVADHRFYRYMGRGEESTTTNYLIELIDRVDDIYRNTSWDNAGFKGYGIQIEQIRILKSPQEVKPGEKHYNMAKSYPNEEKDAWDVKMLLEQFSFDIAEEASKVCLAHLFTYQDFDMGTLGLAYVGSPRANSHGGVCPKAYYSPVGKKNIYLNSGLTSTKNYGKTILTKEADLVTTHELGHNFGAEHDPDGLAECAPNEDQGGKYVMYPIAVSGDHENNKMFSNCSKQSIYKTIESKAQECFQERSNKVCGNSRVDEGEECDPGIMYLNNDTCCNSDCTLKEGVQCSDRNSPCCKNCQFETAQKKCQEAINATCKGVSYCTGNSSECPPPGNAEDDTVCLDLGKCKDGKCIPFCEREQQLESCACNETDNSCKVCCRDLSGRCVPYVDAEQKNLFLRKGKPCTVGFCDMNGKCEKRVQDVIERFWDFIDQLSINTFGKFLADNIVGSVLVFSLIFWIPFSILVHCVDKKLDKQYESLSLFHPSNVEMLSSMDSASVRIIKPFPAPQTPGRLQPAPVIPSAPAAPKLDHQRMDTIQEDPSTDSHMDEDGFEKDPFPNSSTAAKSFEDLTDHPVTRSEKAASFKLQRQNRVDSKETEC

In patent EP1144369B1 (Wyeth Holdings Corporation, priority 1999, dated 2000):

Experiments:
[1] = biological target: TNF-α converting enzyme (TACE) (Homo sapiens, UniProt P78536); assay: TACE inhibition (fluorescent peptidyl substrate); assay type: biochemical; conditions: read-out: IC50 (nM) or % Inhibition (µM) TACE
MMP-1 = biological target: T1, MMP-1 (Homo sapiens, UniProt P03956); assay: MMP-1 inhibition (thiopeptide or fluorescent peptide substrate); assay type: biochemical; conditions: plain number = IC50
T1 sequence (P03956 100-469): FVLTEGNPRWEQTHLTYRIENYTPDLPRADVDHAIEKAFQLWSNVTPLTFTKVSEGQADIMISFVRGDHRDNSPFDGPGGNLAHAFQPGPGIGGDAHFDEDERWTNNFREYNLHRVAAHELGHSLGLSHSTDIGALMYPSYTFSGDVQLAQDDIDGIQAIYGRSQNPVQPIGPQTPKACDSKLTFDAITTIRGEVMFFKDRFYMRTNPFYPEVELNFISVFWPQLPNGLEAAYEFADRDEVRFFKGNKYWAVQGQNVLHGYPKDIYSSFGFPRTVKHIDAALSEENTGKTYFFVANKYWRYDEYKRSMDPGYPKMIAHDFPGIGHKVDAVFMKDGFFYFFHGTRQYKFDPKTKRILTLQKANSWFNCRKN

COc1ccc(S(=O)(=O)N(C)c2c(C)cc(Br)cc2C(=O)NO)cc1 [Example 36, 5-Bromo-N-hydroxy-2-[(4-methoxy-benzenesulfonyl)-methyl-amino]-3-methyl-benzamide]
IC50 [1]: 32 nM

CC#CCOc1ccc(S(=O)(=O)N(C)c2c(C)cc(Br)cc2C(=O)NO)cc1 [Example 54, 5-Bromo-2-[(4-But-2-ynyloxy-benzenesulfonyl)-methyl-amino]-N-hydroxy-3-methyl-benzamide]
IC50 [1]: 16 nM

Cc1cc(Br)cc(C(=O)NO)c1N(C)S(=O)(=O)c1ccc(OCC#Cc2ccccc2)cc1 [Example 59, 5-Bromo-N-hydroxy-3-methyl-2-{methyl-[4-(3-phenyl-prop-2-ynyloxy)-benzenesulfonyl]-amino}-benzamide]
IC50 (MMP-1): 3810 nM
